Permeability data for macrocyclic peptides

Values of Townsend et al. 2020, doi:10.26434/chemrxiv.13335941.v1, as listed in CycPeptMPDB.

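Lipid, pH, incubation time, direction and concentration are not recorded in the data file. Other peptides of the study may be missing here. Peptides that the database sets to -10, its floor, are left out.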

PAMPA measures passive passage through an artificial lipid membrane. Values are log10 P with P in cm/s, so -5 is more permeable than -7.

structure (SMILES),PAMPA (log10 cm/s)
CC(C)C[C@@H]1NC(=O)[C@H]2CCCN2C(=O)[C@H](CC(C)C)N(C)C(=O)[C@H](CC(C)C)N(C)C(=O)[C@@H](C)N(C)C(=O)[C@H](Cc2ccccc2)NC1=O,-5.47
CCCN1CC(=O)N(C)[C@@H](CC(C)C)C(=O)N(C)[C@H](CC(C)C)C(=O)N2CCC[C@@H]2C(=O)N[C@H](CC(C)C)C(=O)N[C@@H](Cc2ccccc2)C(=O)N2CCC[C@H]2C1=O,-5.00
CC(C)C[C@H]1NC(=O)[C@H](C)N(C)C(=O)[C@H]2CCCN2C(=O)[C@H](Cc2ccccc2)NC(=O)[C@H](CC(C)C)N(C)C(=O)[C@H]2CCCN2C(=O)[C@@H](CC(C)C)NC1=O,-5.96
CC(C)C[C@@H]1C(=O)N2CCC[C@H]2C(=O)N(Cc2ccccc2)CC(=O)N[C@@H](Cc2ccccc2)C(=O)N2CCC[C@@H]2C(=O)N(C)[C@H](C)C(=O)N(C)[C@@H](CC(C)C)C(=O)N1C,-5.42
CCCN1CC(=O)N[C@H](CC(C)C)C(=O)N[C@@H](Cc2ccccc2)CC(=O)N2CCC[C@@H]2C(=O)N(C)[C@H](CC(C)C)C(=O)N[C@@H](Cc2ccccc2)C(=O)N2CCC[C@@H]2C1=O,-5.48
CC(C)C[C@H]1NC(=O)[C@H](C)NC(=O)[C@H]2CCCN2C(=O)[C@H](Cc2ccccc2)NC(=O)CN(Cc2ccccc2)C(=O)[C@H]2CCCN2C(=O)CN(Cc2ccccc2)C1=O,-5.79
CC(C)C[C@H]1NC(=O)[C@H]2CCCN2C(=O)[C@@H](CC(C)C)NC(=O)CN(Cc2ccccc2)C(=O)[C@@H](C)N(C)C(=O)[C@H](Cc2ccccc2)NC1=O,-6.04
CC(C)C[C@@H]1NC(=O)[C@@H]2CCCN2C(=O)CN(Cc2ccccc2)C(=O)[C@@H](CC(C)C)NC(=O)[C@H](C)NC(=O)[C@H]2CCCN2C(=O)[C@H](Cc2ccccc2)NC1=O,-6.50
CC(C)C[C@@H]1NC(=O)[C@@H]2CCCN2C(=O)[C@H](CC(C)C)NC(=O)[C@H](CC(C)C)N(C)C(=O)[C@@H](C)N(C)C(=O)[C@H](Cc2ccccc2)NC1=O,-5.79
CC(C)C[C@@H]1C(=O)N(C)[C@@H](CC(C)C)C(=O)N2CCC[C@H]2C(=O)N(Cc2ccccc2)CC(=O)N[C@@H](Cc2ccccc2)C(=O)N[C@@H](C)C(=O)N1C,-5.30
CC(C)C[C@@H]1C(=O)N(C)[C@@H](CC(C)C)C(=O)N2CCC[C@H]2C(=O)N[C@H](CC(C)C)C(=O)N[C@@H](Cc2ccccc2)C(=O)N(C)[C@@H](C)C(=O)N1C,-6.07
CC(C)C[C@@H]1NC(=O)[C@H]2CCCN2C(=O)[C@H](CC(C)C)N(C)C(=O)[C@@H](CC(C)C)NC(=O)[C@H](C)N(C)C(=O)[C@H](Cc2ccccc2)NC1=O,-5.49
CC(C)C[C@@H]1NC(=O)[C@@H](CC(C)C)NC(=O)C[C@H](Cc2ccccc2)NC(=O)[C@H](Cc2ccccc2)NC(=O)[C@@H](CC(C)C)N(C)C(=O)[C@@H]2CCCN2C1=O,-5.65
CCCN1CC(=O)N(C)[C@H](CC(C)C)C(=O)N[C@H](CC(C)C)C(=O)N2CCC[C@@H]2C(=O)N[C@@H](CC(C)C)C(=O)N[C@@H](Cc2ccccc2)C(=O)N2CCC[C@@H]2C1=O,-5.88
CC(C)C[C@H]1NC(=O)[C@@H]2CCCN2C(=O)CN(Cc2ccccc2)C(=O)[C@@H](CC(C)C)NC(=O)[C@@H](C)NC(=O)[C@@H]2CCCN2C(=O)[C@H](Cc2ccccc2)NC1=O,-6.44
CC(C)C[C@H]1NC(=O)[C@H](C)NC(=O)[C@@H]2CCCN2C(=O)[C@H](Cc2ccccc2)NC(=O)CN(Cc2ccccc2)C(=O)[C@@H]2CCCN2C(=O)[C@H](CC(C)C)N(C)C1=O,-5.75
CC(C)C[C@@H]1C(=O)N(Cc2ccccc2)CC(=O)N2CCC[C@@H]2C(=O)N[C@H](CC(C)C)C(=O)N[C@@H](Cc2ccccc2)C(=O)N2CCC[C@H]2C(=O)N[C@@H](C)C(=O)N1C,-5.95
CC(C)C[C@@H]1C(=O)N[C@@H](Cc2ccccc2)C(=O)N2CCC[C@@H]2C(=O)N(C)[C@@H](C)C(=O)N(C)[C@@H](CC(C)C)C(=O)N(C)[C@@H](CC(C)C)C(=O)N2CCC[C@H]2C(=O)N1C,-5.19
CC(C)C[C@H]1NC(=O)[C@@H]2CCCN2C(=O)CN(Cc2ccccc2)C(=O)[C@H](CC(C)C)N(C)C(=O)C[C@H](Cc2ccccc2)NC(=O)[C@@H]2CCCN2C(=O)[C@H](Cc2ccccc2)NC1=O,-5.85
CC(C)C[C@@H]1NC(=O)[C@@H](C)N(C)C(=O)[C@H]2CCCN2C(=O)[C@H](Cc2ccccc2)NC(=O)CN(Cc2ccccc2)C(=O)[C@H]2CCCN2C(=O)[C@@H](CC(C)C)N(C)C1=O,-6.12

A selection of 3 entries from above:

{"smiles": "CC(C)C[C@H]1NC(=O)[C@H]2CCCN2C(=O)[C@@H](CC(C)C)NC(=O)CN(Cc2ccccc2)C(=O)[C@@H](C)N(C)C(=O)[C@H](Cc2ccccc2)NC1=O", "PAMPA (log10 cm/s)": "-6.04"}
{"smiles": "CC(C)C[C@@H]1NC(=O)[C@@H](CC(C)C)NC(=O)C[C@H](Cc2ccccc2)NC(=O)[C@H](Cc2ccccc2)NC(=O)[C@@H](CC(C)C)N(C)C(=O)[C@@H]2CCCN2C1=O", "PAMPA (log10 cm/s)": "-5.65"}
{"smiles": "CC(C)C[C@@H]1NC(=O)[C@@H]2CCCN2C(=O)CN(Cc2ccccc2)C(=O)[C@@H](CC(C)C)NC(=O)[C@H](C)NC(=O)[C@H]2CCCN2C(=O)[C@H](Cc2ccccc2)NC1=O", "PAMPA (log10 cm/s)": "-6.50"}